Antibody variant affinities, Ab-14 light chain, assay B

Target peptide (SARS-CoV-2 spike, HR2 region): PDVDLGDISGINAS

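Phage display of a naive human antibody library on the peptide gave the parent. This is the validation round: designs drawn from the data on random variants, tested in the same kind of assay. Group labels follow the data file (Ctrl: baseline library sampled from a position-specific scoring matrix, with some repeated check sequences; Rand: our label for a block that the file lists under HC and that is probably the random mutants of the ten best first-round binders; GP: Gaussian process model; HC: hill climbing; Gen: genetic algorithm; Gibbs: Gibbs sampling; a sequence that several methods proposed may carry one label only). In AlphaSeq, yeast of one mating type display the scFv and yeast of the other type display the target. Pairs that bind mate more often; barcode pairs of the diploids are counted by sequencing. A regression on co-assayed BCL2-family reference pairs converts the normalised counts of each replicate to an apparent Kd. There are six technical replicates.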

The variants keep the heavy chain, the linker and the frameworks of Ab-14 (scFv order VH, the linker GGGGSGGGGSGGGGS, VL).
VH: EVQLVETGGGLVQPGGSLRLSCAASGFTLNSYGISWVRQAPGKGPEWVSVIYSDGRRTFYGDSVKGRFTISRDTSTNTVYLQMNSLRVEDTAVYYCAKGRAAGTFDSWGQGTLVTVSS
VL: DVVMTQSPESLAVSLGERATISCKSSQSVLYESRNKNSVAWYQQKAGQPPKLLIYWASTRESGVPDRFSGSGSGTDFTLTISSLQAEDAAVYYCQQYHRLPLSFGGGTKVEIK

Variants are written as CDR1, CDR2 and CDR3 of the light chain (limits as in the source). Parent: KSSQSVLYESRNKNSVA, WASTRES, QQYHRLPLS.
Variants here have at most six changes.
Affinities are written as log10 Kd with Kd in nM; a lower number is a better binder.
A mean of the replicates is given; it leaves out those without a signal.
Where no diploid with the target was found in any replicate, the entry reads "nd": below detection, most likely a poor binder, though not proof of it.
Nonspecific signal, from three strains lacking the peptide, appeared in 4% of pairings of all light chain designs, centred on 2.64 (5% of these signals below 1.59); values are not corrected for it. Also given: how often the same scFv was detected with the empty control strains.
Of ten entries with the parent sequence, four were seen in most replicates (averages 0.34 to 2.37), three in one and three in none, so single entries are noisy.
In the paper, a design with two or fewer of six values counts as a poor binder.
A sequence measured in both rounds can read differently, since the two assays cover different ranges.

| CDR-L1 | CDR-L2 | CDR-L3 | group | mean log10 Kd (nM) | seen in | control signals |
|---|---|---|---|---|---|---|
| KSSQSELDESINKNSVA | NASCRES | QQYHGLPLS | Ctrl | 0.39 | 6 of 6 | 1 of 18 |
| KSSDSVLYESTFKNSVA | GASTRES | QQYGRLPLS | Ctrl | 0.19 | 6 of 6 | 1 of 18 |
| KVSPSVLYQSRNKNSVA | EASTRES | QQYHRLPLS | GP_Gen | -0.37 | 6 of 6 | 1 of 18 |
| KSSQSWLYESRNKNSVA | GASTREA | QQYHRLPLS | GP_HC | -0.57 | 6 of 6 | 1 of 18 |
| KLSQSVLYESRNKNSVA | NGSTRES | QQYHRLPLS | GP_Gen | -0.62 | 6 of 6 | 1 of 18 |
| KSSQSVLYESRNANSVA | GASTRES | QQYHRLPLS | Ctrl | -0.02 | 6 of 6 | 2 of 18 |
| KFSQSVLYESRNKNAVA | EASTRES | QQYHRLPLS | GP_Gen | 0.68 | 6 of 6 | 2 of 18 |
| KWSQSWLYESRNKNSVA | GASTQES | QQYHRLPLS | Rand | 0.79 | 6 of 6 | 0 of 18 |
| KVMQSQLYESRNKNSVA | NASQRES | QQYHRLPLS | GP_Gen | -0.37 | 6 of 6 | 0 of 18 |
| KSSISYLEESRNKNSVA | EASTREW | QQYHRLPLS | GP_HC | -0.17 | 6 of 6 | 0 of 18 |
| KISQSVLGESRNKNSVA | DASTRES | QQYHRLPLS | GP_Gen | -0.30 | 6 of 6 | 0 of 18 |
| KSSQTVREESTNKNSVA | WASTREM | QQYHILPLS | Ctrl | 0.76 | 5 of 6 | 0 of 18 |
| KLRQSTLYESRNTNSVA | NASTRES | QQYHRLPLS | GP_HC | 0.14 | 6 of 6 | 2 of 18 |
| KSSQSVLYECRNKNSVA | DASTRES | QQYHRLPLS | Ctrl | 1.50 | 6 of 6 | 1 of 18 |
| KSSQGVVDESFNKNSVA | WASTRRS | QQYHRLPLS | Ctrl | 2.41 | 2 of 6 | 0 of 18 |
| KQSQSFLYESRWKNSVA | GASQRES | QQYHRLPLS | GP_HC | 0.54 | 6 of 6 | 0 of 18 |
| KSSQSFLYESKNLNSVA | WASTRES | QQYHRLPLS | Ctrl | nd | 0 of 6 | 0 of 18 |
| KQSQSVLYESVNKNSVA | DASQRES | QQYHRLPLS | GP_HC | -0.24 | 6 of 6 | 0 of 18 |
| KSSQSVLYESRNKNSVA | WASKRES | QQYQRLPLS | Ctrl | 2.13 | 2 of 6 | 0 of 18 |
| KSPQSWFYESSNANSVA | AASTRES | QQYHRLPLS | Ctrl | -0.13 | 6 of 6 | 1 of 18 |
| KLSQSVLYESRNKNSVA | NASTREA | QQYHRLPLS | GP_Gen | -0.12 | 6 of 6 | 0 of 18 |
| KASQSVLYESRNKNSVA | YASTRES | QQYHRLPLS | Ctrl | 1.13 | 6 of 6 | 0 of 18 |
| KVQQSNLYESRNKNSVA | DASTRES | QQYHRLPLS | GP_Gen | -0.03 | 6 of 6 | 1 of 18 |
| KLSQSVLYESRNPNSVA | NASTRES | QQYHRLPLS | GP_Gen | -0.40 | 6 of 6 | 2 of 18 |
| KSSQSQLYESFNKNSVA | WASTRES | QQYHRLPLS | Ctrl | 1.83 | 2 of 6 | 0 of 18 |
| KSSQLYLIESRNKNSVA | WASTRES | QQYHRLPLS | Ctrl | 2.24 | 1 of 6 | 0 of 18 |
| KSSQSWLYESRNPNSVA | WASTRES | QQYHRLPLS | Ctrl | 1.58 | 6 of 6 | 2 of 18 |
| KLDGSCQYESRNKNSVA | NASTRES | QQYHRLPLS | GP_Gibbs | 0.28 | 6 of 6 | 3 of 18 |
| KSSQSVLPSSRNQNSVA | DASTRVS | QQYHRLPLL | Ctrl | 0.54 | 6 of 6 | 1 of 18 |
| KVSQSHLYESRNKNSVA | WASERES | QQYHRLPLG | Ctrl | 1.16 | 2 of 6 | 0 of 18 |
| KYSQSVLYESENPNSVA | SASTRES | QQYHRLPLS | Ctrl | 0.51 | 6 of 6 | 0 of 18 |
| KVDQSWWYESRNKNSVA | NASTRER | QQYHRLPLS | GP_Gibbs | 0.19 | 6 of 6 | 2 of 18 |
| KLSQSVLYEERAKNSVA | NASQRES | QQYHRLPLS | GP_Gen | nd | 0 of 6 | 0 of 18 |
| KSSDSVLYESRNKDSLA | EASTRES | QQYHRLPLS | Ctrl | 0.76 | 6 of 6 | 1 of 18 |
| KSLQSVLYESRNKNSVA | NASTRED | QQYGRLPLS | GP_HC | 2.02 | 6 of 6 | 0 of 18 |
| MSSQSDLYESRNKNSVA | WASTRES | QQYHRLPLS | Ctrl | nd | 0 of 6 | 0 of 18 |
| KNSQSVLYESRNKNNVA | WASTRES | QQYDRLPLS | Ctrl | 1.46 | 6 of 6 | 2 of 18 |
| HSSQSVLYESRNKNSVA | NGSTRES | QQYHRLPLS | GP_HC | 0.64 | 6 of 6 | 0 of 18 |
| KLQQQTLYESRNKNSVA | SASTRES | QQYHRLPLS | GP_HC | -0.07 | 6 of 6 | 0 of 18 |
| KVSQSWLYESRMKQSVA | NASERES | QQYHRLPLS | GP_Gibbs | 0.61 | 6 of 6 | 1 of 18 |
| KCSQSVLFESRNKNSVA | DASFRES | QQYHRLPLS | GP_HC | 1.13 | 6 of 6 | 0 of 18 |
| KSSNSVLYESRNKNSVA | WASTRES | QQKHRLPLS | Ctrl | nd | 0 of 6 | 0 of 18 |
| KVSNSVLYESPNKNSVA | WASTRES | QQYHRLPLS | Ctrl | 0.84 | 6 of 6 | 0 of 18 |
| KVSDSVLQESRNKNSVA | DASTRES | QQYHRLPLS | GP_HC | -0.20 | 6 of 6 | 0 of 18 |
| KFSQSVLYESRGKASVA | NASTRRS | QQYHRLPLS | Rand | 0.94 | 6 of 6 | 1 of 18 |
| KFSQSVLYESRTSNMVA | NASTRED | QQYHRLPLS | GP_HC | 1.32 | 6 of 6 | 2 of 18 |
| KVEQSELYESRNKNSVA | NASQRES | QQYHRLPLS | GP_Gen | 0.05 | 6 of 6 | 0 of 18 |
| KSSQSVLYESSNKNSVA | WASTRER | QQYHRLPLS | Ctrl | 2.05 | 6 of 6 | 2 of 18 |
| KFYPSYLYESRNKNSVA | QASTRES | QQYHRLPLS | GP_HC | -0.10 | 6 of 6 | 1 of 18 |
| KLSQSNLYESRNKNSVA | HASTRCS | QQYHRLPLS | GP_Gen | 0.49 | 6 of 6 | 1 of 18 |
| KSSQSVLYESRNCASVA | WATTRQS | QQYHRLPLS | Ctrl | nd | 0 of 6 | 1 of 18 |
| KSSQSVMYENRNKNSVA | WASTRES | QQYHDLPLS | Ctrl | 2.41 | 3 of 6 | 1 of 18 |
| KLSGSVLYESRNKNNVA | GASTRES | QQYHRLPLS | GP_Gen | -0.96 | 6 of 6 | 0 of 18 |
| KLSQSWLYESRNKNPVA | GASFRES | QQYHRLPLS | GP_HC | 1.46 | 6 of 6 | 0 of 18 |
| KSGCGVLQESRNKNSVA | GASTRES | QQYHRLPLS | GP_HC | 0.06 | 6 of 6 | 3 of 18 |
| LSPQSVLYESRNKNSVA | WASTRES | QQYHRIPLS | Ctrl | nd | 0 of 6 | 0 of 18 |
| KLWQSTLYESRNKNSVA | NASTRLS | QQYHRLPLS | GP_HC | -0.04 | 6 of 6 | 0 of 18 |
| KSSQSDLYESRNKNSVA | WASTREQ | QQYHRLPLS | Ctrl | 1.15 | 6 of 6 | 1 of 18 |
| KSSESVLYESRNKNHVA | WASTRES | QQYHGLPLS | Ctrl | 3.00 | 1 of 6 | 1 of 18 |
| KVSQSWLPESRNKNSVA | EASTRQS | QQYHRLPLS | GP_HC | 0.20 | 6 of 6 | 1 of 18 |
| KSSQSYLYESRNKNSVA | AASTRES | QQYHRLPLS | GP_HC | 0.62 | 6 of 6 | 1 of 18 |
| KQSQSVEQESSNKNSVA | NASTREQ | QQYHRLPLS | GP_Gibbs | 0.21 | 6 of 6 | 3 of 18 |
| KMSQSWLYESRNKNSVA | NASQREQ | QQYHRLPLS | GP_Gen | 0.00 | 6 of 6 | 0 of 18 |
| KLSQSEEYESRNKNSVA | NASTRMS | QQYHRLPLS | GP_Gen | -0.28 | 6 of 6 | 2 of 18 |
| SLMQSVLYESRNKNSVA | HASKRED | QQYHRLPLS | GP_HC | 0.22 | 6 of 6 | 1 of 18 |
| KSSQSVGDESRNKNSVA | WASTRES | QQYYRLPLS | Ctrl | 1.70 | 5 of 6 | 1 of 18 |
| KVSQSELYESRNKNSVA | NASTREE | QQYHRLPLS | GP_Gen | -0.06 | 6 of 6 | 0 of 18 |

5 of these entries, quoted again:

| CDR-L1 | CDR-L2 | CDR-L3 | group | mean log10 Kd (nM) | seen in | control signals |
|---|---|---|---|---|---|---|
| KFSQSVLYESRTSNMVA | NASTRED | QQYHRLPLS | GP_HC | 1.32 | 6 of 6 | 2 of 18 |
| KISQSVLGESRNKNSVA | DASTRES | QQYHRLPLS | GP_Gen | -0.30 | 6 of 6 | 0 of 18 |
| KSPQSWFYESSNANSVA | AASTRES | QQYHRLPLS | Ctrl | -0.13 | 6 of 6 | 1 of 18 |
| KSSQSVGDESRNKNSVA | WASTRES | QQYYRLPLS | Ctrl | 1.70 | 5 of 6 | 1 of 18 |
| KCSQSVLFESRNKNSVA | DASFRES | QQYHRLPLS | GP_HC | 1.13 | 6 of 6 | 0 of 18 |

Values reported by Li et al. 2023, doi:10.1038/s41467-023-39022-2 (FLAb copy).